IC50 data for five compounds are collected here from patent publication US6841682B2, “Heterocycles useful in the treatment of benign prostatic hyperplasia” (Janseen Pharmaceutica N.V., priority 1997, dated 2005).

Protein sequences, listed by entry. Tags and fused reporters are not part of them.
UniProt P35348, whole entry: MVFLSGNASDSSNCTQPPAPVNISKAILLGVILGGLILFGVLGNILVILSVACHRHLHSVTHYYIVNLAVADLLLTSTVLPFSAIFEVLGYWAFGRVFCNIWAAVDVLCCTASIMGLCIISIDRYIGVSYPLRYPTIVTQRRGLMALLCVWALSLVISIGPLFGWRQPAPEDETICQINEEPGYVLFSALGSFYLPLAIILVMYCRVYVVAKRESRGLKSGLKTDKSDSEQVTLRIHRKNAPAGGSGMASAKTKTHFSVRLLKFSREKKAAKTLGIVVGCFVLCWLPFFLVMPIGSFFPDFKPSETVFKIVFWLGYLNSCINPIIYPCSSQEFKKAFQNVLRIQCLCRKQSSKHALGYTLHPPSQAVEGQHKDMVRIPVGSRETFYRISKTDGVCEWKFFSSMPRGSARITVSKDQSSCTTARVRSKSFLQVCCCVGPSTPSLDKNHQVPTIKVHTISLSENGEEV
UniProt P25100, whole entry: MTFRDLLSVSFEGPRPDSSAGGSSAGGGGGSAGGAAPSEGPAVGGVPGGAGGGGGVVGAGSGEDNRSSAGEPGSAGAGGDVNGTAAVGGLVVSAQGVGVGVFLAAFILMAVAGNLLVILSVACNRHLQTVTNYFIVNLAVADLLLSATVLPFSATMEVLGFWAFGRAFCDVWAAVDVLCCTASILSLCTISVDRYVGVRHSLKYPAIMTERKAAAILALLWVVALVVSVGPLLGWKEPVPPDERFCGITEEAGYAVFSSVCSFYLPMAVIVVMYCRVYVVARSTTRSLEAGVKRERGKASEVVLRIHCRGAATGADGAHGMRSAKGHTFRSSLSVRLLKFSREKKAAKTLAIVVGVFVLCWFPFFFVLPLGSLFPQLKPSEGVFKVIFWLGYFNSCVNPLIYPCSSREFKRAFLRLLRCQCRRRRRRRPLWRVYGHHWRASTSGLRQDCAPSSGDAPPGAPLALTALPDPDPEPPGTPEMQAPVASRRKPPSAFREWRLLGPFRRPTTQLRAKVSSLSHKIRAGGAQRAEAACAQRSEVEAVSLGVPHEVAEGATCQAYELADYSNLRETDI
UniProt P35368, whole entry: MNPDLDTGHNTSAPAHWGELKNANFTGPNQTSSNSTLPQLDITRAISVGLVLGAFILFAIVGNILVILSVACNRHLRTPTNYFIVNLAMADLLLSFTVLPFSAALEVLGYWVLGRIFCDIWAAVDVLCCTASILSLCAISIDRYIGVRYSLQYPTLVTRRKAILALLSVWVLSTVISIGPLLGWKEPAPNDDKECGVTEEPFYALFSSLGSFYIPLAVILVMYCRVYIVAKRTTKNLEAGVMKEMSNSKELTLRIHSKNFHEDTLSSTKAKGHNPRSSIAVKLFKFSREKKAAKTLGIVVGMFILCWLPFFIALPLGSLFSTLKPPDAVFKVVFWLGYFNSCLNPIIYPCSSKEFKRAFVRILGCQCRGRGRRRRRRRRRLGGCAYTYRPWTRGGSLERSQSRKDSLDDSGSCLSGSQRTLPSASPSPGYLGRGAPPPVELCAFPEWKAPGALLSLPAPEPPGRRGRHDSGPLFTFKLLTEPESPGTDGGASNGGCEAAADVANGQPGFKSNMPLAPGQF

Read-outs that look alike come from different tables or passages of the source.

Assay [1] has as its target α1a-AR (Homo sapiens, UniProt P35348). Briefly: radioligand ([125I]-HEAT) receptor binding assay, COS cell membranes, α1a-AR.
The target in assay [2] is α1c (Homo sapiens, UniProt P25100). Description: α1c screen (as named in the preparative examples). The settings on record: read-out: activity in the α1c screen; stated in the preparative example. The text has this:
The first assay tested the ability of compounds of Formula I to bind to membrane bound receptors α1a-AR, α1b-AR and α1d-AR.
The DNA sequences of the three cloned human α1-AR subtypes have been published. […] We used published DNA sequence information to design-primers for use in RT-PCR amplification of each subtype to obtain cloned cDNAs. Human poly A+ RNA was obtained from commercially available sources and included hippocampus and prostate samples, sources which have been cited in the literature. For the primary screen a radio ligand binding assay was used which employed membrane preparations from cells expressing the individual cloned receptor cDNAs. Radiolabeled ligands with binding activity on all three subtypes (non-selective) are commercially available ([125I]-HEAT, [3H]-prazosin). […]
The three α1-AR subtypes (a, b, d) were transfected into COS cells using a standard DEAE-dextran procedure with a chloroquine shock. […] The protein concentration was determined following membrane solubilization with TritonX-100.
The ability of each compound to bind to each of the α1-AR subtypes was assessed in a receptor binding assay. […] Scintillation fluid (25 mL) was added to each well, and the filter plate was counted in a Packard Topcount scintillation counter. Data was analyzed using GraphPad Prism software.

The target in assay [3] is α1d-AR (Homo sapiens, UniProt P25100). Briefly: radioligand ([125I]-HEAT) receptor binding assay, COS cell membranes, α1d-AR. The conditions noted are these: read-out: α1d IC50, Tables A-J, [125I]-HEAT 50 pM.
Assay [4] addresses α1b-AR (Homo sapiens, UniProt P35368). Description: radioligand ([125I]-HEAT) receptor binding assay, COS cell membranes, α1b-AR.
[5] abbreviates: read-out: α1a IC50, Tables A-J, [125I]-HEAT 50 pM, COS membranes.
The mark [6] stands for this setting: read-out: α1b IC50, Tables A-J, [125I]-HEAT 50 pM, COS membranes.

As to `CC(C)Oc1ccccc1N1CCN(Cc2cc(CN3CCCCC3=O)n(C)n2)CC1`, the IC50 in assay [1] (read-out: activity in the α1a screen, stated in the preparative example) is 317000 pM; in assay [1] (setting [5]), 8800 pM; in assay [2], 1270 nM; in assay [3] it was 130000 pM; in assay [4] (read-out: activity in the α1b screen, stated in the preparative example) it was greater than 1e+07 pM; in assay [4] (setting [6]), 642000 pM.

Consider `CC(C)Oc1ccccc1N1CCN(Cc2cccc(CN3C(=O)CC4(CCCC4)CC3=O)n2)CC1`, for which the values for the IC50 in assay [1] (setting [5]), in assay [3] and in assay [4] (setting [6]) were 147000 pM, 291000 pM and 3.32e+06 pM, respectively.

`CC(C)Oc1ccccc1N1CCN(Cc2nc(CN3C(=O)c4ccccc4C3=O)co2)CC1`: the values for the IC50 in assay [1] (setting [5]), in assay [3] and in assay [4] (setting [6]) were 163000 pM, greater than 8.38e+06 pM and greater than 1e+07 pM, respectively.

Take `COC(=O)[C@@H]1CCCN1Cc1ccc(CN2CCN(c3ccccc3OC)CC2)s1`: the IC50 was found to be 23000 pM in assay [1] (setting [5]), 30000 pM in assay [3] and 1.19e+06 pM in assay [4] (setting [6]).

For the compound `CC(C)Oc1ccccc1N1CCN(Cc2nc(CN3C(=O)CC4(CCCC4)CC3=O)co2)CC1`, the IC50 is 595000 pM in assay [1] (setting [5]), greater than 8.28e+06 pM in assay [3] and greater than 1e+07 pM in assay [4] (setting [6]).
